{"source": "PubChem BioAssay AID1046", "about": "(PCMD, 2008)", "note": "Only a part is listed here, and it is no random draw. The source made the active and inactive calls.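 Rule for the calls: active = inhibition at or above 40%; inactive = inhibition below 40%.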", "data": [{"biological_target": "Prothrombin (Homo sapiens) (UniProt P00734)", "experiment": "blockers of thrombin peptide substrate cleavage – biochemical, 1536-well, fluorogenic AMC substrate, counter-screen for coagulation protease inhibitor project, primary screen (AID 1046);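 note: 0% = enzyme with no compound and 100% = wells without enzyme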", "settings": "alpha-thrombin, Boc-VPR-AMC fluorogenic substrate cleavage; at 5 µM; stronger effect = higher value", "values": [{"compound": "O=P(Nc1nc2ccc(Cl)cc2s1)(c1ccccc1)c1ccccc1", "inhibition": "inactive: 3.87%"}, {"compound": "Cc1ccc(NP(=O)(Oc2ccccc2F)Oc2ccccc2F)nc1", "inhibition": "inactive: 2.08%"}, {"compound": "Cc1cc(SC(NC(=O)c2ccc(F)cc2)C(Cl)(Cl)Cl)ncn1", "note": "(stereo not drawn)", "inhibition": "inactive: -7.96%"}, {"compound": "CCOP(=O)(Nc1ccccc1)OCC", "inhibition": "inactive: -6.97%"}, {"compound": "CCN(N=Nc1nonc1N)c1nonc1N", "inhibition": "inactive: -3.24%"}, {"compound": "Nc1cccc2ccc([As](=O)(O)O)cc12", "inhibition": "inactive: -4.27%"}, {"compound": "O=C(Nc1cc([As](=O)(O)O)ccc1O)c1ccccc1", "inhibition": "inactive: 0.02%"}, {"compound": "CC(C)(C)C(=O)NC(Sc1ccncn1)C(Cl)(Cl)Cl", "note": "(stereo not drawn)", "inhibition": "inactive: -9.88%"}, {"compound": "O=[N+]([O-])c1ncn(CCn2ncnc2[N+](=O)[O-])n1", "inhibition": "inactive: -7.67%"}, {"compound": "O=[N+]([O-])c1cccc(NC2=NCC(CBr)S2)c1", "note": "(stereo not drawn)", "inhibition": "inactive: -1.12%"}, {"compound": "O=C(O)CNc1ccc([As](=O)(O)O)cc1", "inhibition": "inactive: -10.5%"}, {"compound": "COc1ccc(C2=NCC(CBr)S2)cc1", "note": "(stereo not drawn)", "inhibition": "inactive: -2.01%"}, {"compound": "CC(=O)N1C2C3N(C(C)=O)C1C1N(C(C)=O)C(C(N1C(C)=O)N3C(C)=O)N2C(C)=O", "inhibition": "inactive: 3.35%"}, {"compound": "O=[N+]([O-])c1cccc2n[nH]nc12", "inhibition": "inactive: -0.6%"}, {"compound": "O=[N+]([O-])c1cc([N+](=O)[O-])c(CCNc2ccccc2)c([N+](=O)[O-])c1", "inhibition": "inactive: 0.22%"}, {"compound": "CCc1nc2c(n1)c1c(non1O)c1c2no[n+]1[O-]", "inhibition": "inactive: -3.81%"}, {"compound": "Cc1ccc(NP(=O)(Oc2ccccc2)Oc2ccccc2)nc1", "inhibition": "inactive: -3.76%"}, {"compound": "C[N+]1=C2C=CC=CC=C2SC12C([N+](=O)[O-])=CC([N+](=O)[O-])=C[C-]2[N+](=O)[O-]", "note": "(stereo not drawn)", "inhibition": "inactive: -2.97%"}, {"compound": "Nc1ccc([As](=O)(O)c2ccc(N)cc2)cc1", "inhibition": "inactive: 1.98%"}, {"compound": "CCN(/C(=N/P(=O)(N1CCOCC1)N1CCOCC1)N1CCOCC1)c1ccc(OC)cc1", "inhibition": "inactive: 9.45%"}, {"compound": "CN(C)C(=O)OCCc1n(C)cc[n+]1C", "inhibition": "inactive: -10.9%"}, {"compound": "CC(C)=N/N=C(\\N)N[N+](=O)[O-]", "inhibition": "inactive: -4.77%"}, {"compound": "CC1CCN(C(=O)Oc2c(Cl)cc(Cl)c3cccnc23)CC1", "inhibition": "inactive: -2.98%"}]}]}
